For the test, the target named is T1, Prostaglandin G/H synthase 2 (Mus musculus, UniProt Q05769).
T1 sequence (Q05769 whole entry): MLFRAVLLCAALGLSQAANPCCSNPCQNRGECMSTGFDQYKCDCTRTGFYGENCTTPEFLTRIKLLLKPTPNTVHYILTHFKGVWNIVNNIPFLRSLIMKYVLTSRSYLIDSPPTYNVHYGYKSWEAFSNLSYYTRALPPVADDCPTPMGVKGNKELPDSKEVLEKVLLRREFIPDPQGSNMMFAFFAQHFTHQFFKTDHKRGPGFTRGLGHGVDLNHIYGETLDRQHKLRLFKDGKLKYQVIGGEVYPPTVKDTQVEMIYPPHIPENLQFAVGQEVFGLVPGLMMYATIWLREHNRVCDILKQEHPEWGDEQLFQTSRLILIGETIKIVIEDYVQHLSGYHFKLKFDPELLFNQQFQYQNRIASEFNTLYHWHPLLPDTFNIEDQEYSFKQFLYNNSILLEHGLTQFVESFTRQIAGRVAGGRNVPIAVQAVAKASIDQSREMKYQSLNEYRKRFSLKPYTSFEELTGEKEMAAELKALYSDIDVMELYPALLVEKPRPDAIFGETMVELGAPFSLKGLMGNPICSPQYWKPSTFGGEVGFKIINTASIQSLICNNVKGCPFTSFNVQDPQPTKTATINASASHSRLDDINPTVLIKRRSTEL

On to `CCOC(=O)C(O)c1cc(-c2ccc(S(C)(=O)=O)cc2)n(-c2ccc(OC)cc2)c1C` (racemic), for which the midpoint of inhibition, the IC50, lay at 120 nM. To `CCOC(=O)C(O)c1cc(-c2ccc(S(C)(=O)=O)cc2)n(-c2ccccc2)c1C` (racemic) belongs 300 nM.

These data come from ChEMBL document CHEMBL1140067, “Synthesis, in vitro, and in vivo biological evaluation and molecular docking simulations of chiral alcohol and ether derivatives of the 1,5-diarylpyrrole scaffold as novel anti-inflammatory and analgesic agents” (Bioorg Med Chem, 2008).
